Here are results for one compound from patent publication US20170105952A1, “HISTONE ACETYL TRANSFERASE ACTIVATORS AND HISTONE DEACETYLASE INHIBITORS IN THE TREATMENT OF ALCOHOLISM” (THE BOARD OF TRUSTEES OF THE UNIVERSITY OF ILLINOIS, priority 2006, published 2017).

The test concerns HDAC2 isoform. Kind of test: HDAC2 protein levels in amygdaloid structures of ethanol-withdrawn rats (gold-immunolabeling). Format: in vivo. The following applies: SAHA 50 mg/kg intraperitoneally, increase seen in CeA and MeA, FIG. 4.

For `O=C(CCCCCCC(=O)Nc1ccccc1)NO` [SAHA, suberoylanilide hydroxamic acid], the HDAC2 protein levels entry is recorded as “normalized HDAC2 levels”.
